Here are results for 1 substance from patent US20050238732A1, “Carbonated germicide with pressure control” (priority 2003, published 2005).

The conditions of the data set: in the Example 17 test solution.

For orientation: solubility means the dissolved amount per volume that the medium holds. A high value points to much dissolved substance. n-tetrabutylammonium iodide [Bu4NI] registered a solubility of 57 mM.
